The nature of the data set: Pharmacokinetics of alpelisib and capecitabine in plasma (LC-MS/MS, non-compartmental). It is filed as in vivo. To be noted: human, oral, Dose level 2 (n=3): alpelisib 300mg+capecitabine 1250mg/m^2, day 1 of cycle 1, mean (range); for AUC(0-t): read-out: AUC0-6h. The procedure: The pharmacokinetic (PK) analysis was conducted in all patients who received at least one dose of alpelisib and capecitabine combination therapy. Blood samples were collected at specified time points, including pre-dose, 1, 2, 4, and 6 hours post-dose, on day 1 of cycle 1. Measurements of alpelisib and capecitabine were carried out with a validated LC-MS/MS assay. PK parameters, including maximum plasma concentration (Cmax), time to reach maximum plasma concentration (tmax), area under the plasma concentration-time curve (AUC), and elimination half-life (t1/2), were calculated using non-compartmental methods. […] The data were presented as the mean (range) and standard deviation (SD).

Take `Cc1nc(NC(=O)N2CCC[C@H]2C(N)=O)sc1-c1ccnc(C(C)(C)C(F)(F)F)c1` [alpelisib]: the Cmax turned out to be 2040 ng/mL, the half-life is 4.3 h and the AUC(0-t) is 8190 ng·h/mL.

With `CCCCCOC(=O)Nc1nc(=O)n([C@@H]2O[C@H](C)[C@@H](O)[C@H]2O)cc1F` [capecitabine], the Cmax amounted to 7000 ng/mL, the half-life was 0.73 h and the AUC(0-t) turned out to be 8710 ng·h/mL.

The Cmax is the peak of the concentration-time curve. A word on the half-life: it is the time in which the quantity being followed falls by half.

For the origin of these results see publication PMC11272611, “Phase Ib and pharmacokinetics study of alpelisib, a PIK3CA inhibitor, and capecitabine in patients with advanced solid tumors” (Frontiers in Oncology, 2024).
